Laboratory results as given in ChEMBL document CHEMBL5500370, “Discovery of potent and novel dual NAMPT/BRD4 inhibitors for efficient treatment of hepatocellular carcinoma” (Eur J Med Chem, 2024).

Key:
Type in all cases: functional, cell-based
[1] = system: Hep 3B2; test: Downregulation of c-Myc level in human Hep3B cells at 10 uM measured after 48 hrs in presence of JQ1 by Western blot analysis
[2] = system: Hep 3B2; test: Downregulation of YAP-1 level in human Hep3B cells at 10 uM measured after 48 hrs in presence of JQ1 by Western blot analysis
[3] = system: Hep 3B2; test: Induction of apoptosis in human Hep3B cells at 10 uM measured after 48 hrs in presence of JQ1 by Annexin V-FITC/Pi staining based flow cytometry
[4] = system: Hep 3B2; test: Downregulation of NAPRT level in human Hep3B cells at 10 uM measured after 48 hrs in presence of JQ1 by Western blot analysis
[5] = system: Hep 3B2; test: Downregulation of NAMPT level in human Hep3B cells at 10 uM measured after 48 hrs in presence of JQ1 by Western blot analysis
[6] = system: Hep 3B2; test: Downregulation of NAD+ level in human Hep3B cells at 10 uM measured after 72 hrs in presence of JQ1
[7] = system: Hep 3B2; test: Downregulation of NAPRT level in human Hep3B cells at 10 uM measured after 48 hrs by Western blot analysis
[8] = system: Hep 3B2; test: Downregulation of NAMPT level in human Hep3B cells at 10 uM measured after 48 hrs by Western blot analysis
[9] = system: Hep 3B2; test: Downregulation of c-Myc level in human Hep3B cells at 10 uM measured after 48 hrs in presence of FK866 by Western blot analysis
[10] = system: Hep 3B2; test: Downregulation of YAP-1 level in human Hep3B cells at 10 uM measured after 48 hrs in presence of FK866 by Western blot analysis
[11] = system: Hep 3B2; test: Induction of apoptosis in human Hep3B cells at 10 uM measured after 48 hrs in presence of FK866 by Annexin V-FITC/Pi staining based flow cytometry
[12] = system: Hep 3B2; test: Downregulation of NAPRT level in human Hep3B cells at 10 uM measured after 48 hrs in presence of FK866 by Western blot analysis
[13] = system: Hep 3B2; test: Downregulation of NAMPT level in human Hep3B cells at 10 uM measured after 48 hrs in presence of FK866 by Western blot analysis
[14] = system: Hep 3B2; test: Downregulation of NAD+ level in human Hep3B cells at 10 uM measured after 72 hrs in presence of FK866

Measured: Activity

O=C(/C=C/c1cccnc1)NCCCCC1CCN(C(=O)c2ccccc2)CC1 [DAPORINAD]
active: [1] | [2] | [3] | [4] | [5] | [6] | [7] | [8]

Cc1sc2c(c1C)C(c1ccc(Cl)cc1)=N[C@@H](CC(=O)OC(C)(C)C)c1nnc(C)n1-2
active: [9] | [10] | [11] | [12] | [13] | [14] | [7] | [8]

Active and inactive are the calls of the source.
